Reference: US20230287044A1, “NOVEL ANTIBACTERIAL PEPTIDE AND USE THEREOF” (priority 2020, published 2023)

Tested on: MRSA (S. aureus) KCCM 40510
Type: cell-based, Staphylococcus aureus
Conditions: CAMHB, 37° C., 18 hours; average of three experiments
Protocol: The minimum growth inhibitory concentrations of the antibacterial peptides of the present invention weremeasured, and the results are shown in Table 3 below.
Specifically, the strains were grown in CAMHB until the midlog phase, and then diluted with PBS buffer to 1× 10^6 cfu/ml to prepare the bacterial solution, and the antibacterial peptide prepared in Example 1above was diluted with CAMHB to 80 µM, 40 µM, 20 µM, 10 µM, 5 µM, 2.5 µM, 1.25 µM and 0.63 µM, and then the bacterial solution was treated with the same volume.
The results are the average value of three independent experiments.

CC[C@H](C)[C@H](NC(=O)CN)C(=O)NCC(=O)N[C@@H](C)C(=O)N[C@H](C(=O)N[C@@H](CC(C)C)C(=O)N[C@@H](CCCCN)C(=O)N[C@H](C(=O)N[C@@H](CC(C)C)C(=O)N[C@H](C(=O)N[C@H](C(=O)NCC(=O)N[C@@H](CC(C)C)C(=O)N1CCC[C@H]1C(=O)N[C@@H](C)C(=O)N[C@@H](CC(C)C)C(=O)N[C@H](C(=O)N[C@@H](CO)C(=O)N[C@@H](Cc1c[nH]c2ccccc12)C(=O)N[C@H](C(=O)N[C@@H](CCCCN)C(=O)N[C@@H](CCCNC(=N)N)C(=O)N[C@@H](CCCCN)C(=O)N[C@@H](CCCNC(=N)N)C(=O)N[C@@H](CCC(N)=O)C(=O)N[C@@H](CCC(N)=O)C(N)=O)[C@@H](C)CC)[C@@H](C)CC)[C@@H](C)O)[C@@H](C)O)C(C)C)C(C)C [Melittin, reference compound]
MIC MRSA (S. aureus) KCCM 40510: 1.25 µM (≈ 3.56 µg/mL)

≈ marks a conversion by molar mass, not a printed value.
